Assay results reported in patent US10968214B2, “KRas G12C inhibitors” (Eli Lilly and Company, priority 2018, dated 2021).

Legend:
Assay type in all cases: in vivo
Details in all cases: Cetuximab 20 mg/kg BIWx4
[1] = test system: SW1463 xenograft; experiment: Anti-tumor growth activity, SW1463 colorectal xenograft
[2] = test system: SW837 xenograft; experiment: Anti-tumor growth activity, SW837 colorectal xenograft
[3] = test system: MiaPaca-2 xenograft; experiment: Anti-tumor growth activity, MiaPaca-2 pancreatic xenograft

## cetuximab [reference compound]
[1]
  In Vivo Anti-Tumor Activities: 81.1
[2]
  In Vivo Anti-Tumor Activities: 58.49
[3]
  In Vivo Anti-Tumor Activities: −20.8
